# Values quoted from earlier work, collected in patent publication US8273787B2, “Activated cytotoxic compounds for attachment to targeting molecules for the treatment of mammalian disease conditions” (Onconova Therapeutics, Inc, priority 2006, dated 2012).
# Tested on: xenograft
# Settings: weekly i.p. doses of 4 mg/kg over four months; cited from earlier work
Substance,Median survival time,mice tumor free two months after treatment had been completed,tumor regression
"Trastuzumab-Geldanamycin: immunoconjugates composed of HERCEPTIN (Trastuzumab) and the cytotoxin Geldanamycin, reported by NCI groups [reference compound]",145 days,nearly one-third,69%
Trastuzumab: Humanized mAb to epidermal growth factor receptor 2 (HER2/ErbB2),78 days,no survivors,7%
